AlphaSeq binding of Ab-14 heavy chain variants to a spike HR2 peptide

Binding partner: SARS-CoV-2 spike HR2 peptide, sequence PDVDLGDISGINAS.

Parent scFv Ab-14: VH joined to VL by three GGGGS repeats. Changes lie in the heavy chain CDRs alone.
VH: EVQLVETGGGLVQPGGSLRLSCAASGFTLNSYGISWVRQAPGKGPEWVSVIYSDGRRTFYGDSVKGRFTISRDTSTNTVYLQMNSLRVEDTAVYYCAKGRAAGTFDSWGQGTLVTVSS
VL: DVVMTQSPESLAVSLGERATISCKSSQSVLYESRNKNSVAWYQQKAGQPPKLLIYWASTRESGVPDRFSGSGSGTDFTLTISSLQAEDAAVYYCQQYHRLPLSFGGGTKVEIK

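The parent was found by panning a naive human phage display library on the peptide. Designed CDR sequences, proposed from the first random library and measured here. Their group label is 14H_En_Gen (En: ensemble of fine-tuned language models; Gen: genetic algorithm). In AlphaSeq, yeast of one mating type display the scFv and yeast of the other type display the target. The frequency of each diploid, read from paired DNA barcodes, reflects how well the two displayed proteins bind. A regression on co-assayed BCL2-family reference pairs converts the normalised counts of each replicate to an apparent Kd. Each pool was mated in six replicate cultures.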

Variants are written as CDR1, CDR2 and CDR3 of the heavy chain (limits as in the source). Parent: GFTLNSYGIS, VIYSDGRRTFYGDSVK, GRAAGTFDS. The read-out is the apparent dissociation constant on a log10 scale (nM): the lower, the stronger. An entry "ND" has no value in the source: the pair was not observed among the diploids in that replicate. This suggests poor binding but is not conclusive. A sequence measured in both rounds can read differently, since the two assays cover different ranges. Background: pairings of all heavy chain designs with three empty control strains gave a value in 1% of cases (median 2.08, 5th percentile 0.84). Values in that range, when seen in few replicates, are hard to tell from nonspecific mating. The control count says in how many pairings with the empty strains this scFv gave a signal, with their mean in brackets. Of ten entries with the parent sequence, four were seen in most replicates (averages 0.34 to 2.37), three in one and three in none, so single entries are noisy. The authors' rule: three or more of the six replicates give a measured affinity, fewer mean a poor binder.

| # | CDR-H1 | CDR-H2 | CDR-H3 | log10 Kd (nM) by replicate | empty controls |
|---|---|---|---|---|---|
| 1 | GFDLNEYGIS | VIYADGVRTAYADSVK | GQNAGTFDT | 0.39 -0.55 -0.25 -0.38 -0.81 -0.67 | 0 of 18 |
| 2 | GFDLNEYGIS | VIYADGMRTAYADSVK | GENAGTFDE | 0.24 -0.27 -0.62 -0.01 -0.35 -0.12 | 0 of 18 |
| 3 | GFDLDEYGIS | VIYADGMRTAYSDSVK | GTVAGTFDV | -0.43 -0.81 -0.68 -1.11 -0.91 -0.74 | 0 of 18 |
| 4 | GFDLNEYGIS | VIYADGKRTSYADSVK | GNNAGTFDV | -0.83 -0.66 -0.94 -0.76 -0.83 -0.62 | 0 of 18 |
| 5 | GFDLNEYGIS | VIYADGIRTAYADSVK | GQNAGTFDV | -0.09 -0.08 -0.08 -0.26 -0.38 -0.30 | 0 of 18 |
| 6 | GFDLNEYGIS | VIYADGMRTVYADSVK | GNQAGTFDM | -0.67 -0.03 -0.60 -0.88 -0.44 -0.24 | 0 of 18 |
| 7 | GFDLNEYGIS | VIYADGVRTAYADNVK | GEVAGTFDI | -0.53 -0.80 -0.97 -0.49 -0.70 -0.35 | 0 of 18 |
| 8 | GFDLDEYGIS | VIYADGSRTAYADDVK | GNVAGTFDL | -0.27 -0.04 -0.16 -0.34 -0.32 -0.44 | 0 of 18 |
| 9 | GFDLNEYGIS | VIYADGMRTAYTDKVK | GNNAGTFDV | -0.81 1.39 -0.03 -0.44 -0.10 -0.14 | 1 of 18 (1.45) |
| 10 | GFDLSEYGIS | VIYADGRRTAYADSVK | GNVAGTFDV | -0.70 -0.60 -0.57 -0.53 0.01 -0.31 | 0 of 18 |
| 11 | GFDLNEYGIS | VIYADGMRTAYADKVK | GSNAGTFDV | -0.70 -0.93 -0.33 -1.04 -0.76 -0.70 | 0 of 18 |
| 12 | GFDLNEYGIS | VIYADGRRTAYADSVK | GENAGTFDI | -0.42 -0.50 -0.54 -0.67 -0.66 -0.65 | 0 of 18 |
| 13 | GFDLDEYGIS | VIYADGVRTAYVDSVK | GQNAGTFDV | 0.79 -0.51 -0.86 -0.16 -0.23 -0.19 | 0 of 18 |
| 14 | GFDLNEYGIS | VIYADGMRTAYIDSVK | GENAGTFDQ | ND ND ND ND ND 1.99 | 0 of 18 |
| 15 | GFDLNEYGIS | VIYADGIRTAYADSVK | GNNAGTFDV | -0.03 -0.50 -0.31 -0.53 -0.73 -0.18 | 1 of 18 (1.74) |
| 16 | GFDLDEYGIS | VIYADGQRTAYADSVK | GQNAGTFDM | -0.01 -0.54 -0.58 -0.36 -0.22 -0.01 | 0 of 18 |
| 17 | GFDLNEYGIS | VIYADGQRTAYTDSVK | GNVAGTFDT | 0.12 -0.38 -0.51 -0.30 0.00 -0.08 | 0 of 18 |
| 18 | GFDLDEYGIS | VIYADGQRTAYSDSVK | GNNAGTFDL | -0.69 -0.48 -0.61 -0.54 -0.83 -0.29 | 0 of 18 |
| 19 | GFDLNEYGIS | VIYADGMRTAYVDSVK | GNNAGTFDM | 0.49 1.33 0.47 0.85 0.21 0.52 | 0 of 18 |
| 20 | GFDLDEYGIS | VIYADGMRKAYADSVK | GNQAGTFDV | -0.39 -0.57 -0.57 -1.15 -0.48 -0.40 | 0 of 18 |
| 21 | GFDLNEYGIS | VIYADGVRTAYIDSVK | GQVAGTFDV | 0.13 -0.34 -0.24 -0.47 -0.53 -0.09 | 1 of 18 (1.67) |
| 22 | GFDLNEYGIS | VIYADGVRTAYADDVK | GETAGTFDV | 0.10 -0.66 -0.74 -0.46 -0.34 -0.46 | 0 of 18 |
| 23 | GFDLNEYGIS | VIYADGQRTAYADDVK | GEVAGTFDL | 0.61 -0.54 0.10 -0.91 -0.34 -0.41 | 0 of 18 |
| 24 | GFDLNEYGIS | VIYADGMRTAYTDSVK | GETAGTFDL | 0.06 -0.32 -0.22 -0.06 -0.37 -0.42 | 1 of 18 (2.65) |
| 25 | GFDLNEYGIS | VIYADGKRTAYADSVK | GEQAGTFDV | -0.44 -0.06 -0.34 -0.28 0.48 0.38 | 1 of 18 (3.37) |
| 26 | GFDLDEYGIS | VIYADGQRTAYSDSVK | GENAGTFDT | 1.02 1.33 1.68 2.17 1.11 1.93 | 0 of 18 |
| 27 | GFDLDEYGIS | VIYADGMRTAYIDSVK | GNVAGTFDV | -0.28 -0.16 -0.42 -0.47 -0.65 -0.47 | 0 of 18 |
| 28 | GFDLDEYGIS | VIYADGMRTAYTDSVK | GNQAGTFDI | ND ND ND ND ND ND | 0 of 18 |
| 29 | GFDLDEYGIS | VIYADGVRTAYADSVK | GNNAGTFDL | -0.17 -0.52 -0.23 -0.72 -0.47 -0.15 | 0 of 18 |
| 30 | GFDLNEYGIS | VIYADGKRTAYTDSVK | GENAGTFDL | -0.44 -0.59 -0.54 -0.13 -0.23 -0.34 | 0 of 18 |
| 31 | GFDLNEYGIS | VIYADGQRTVYADSVK | GNVAGTFDT | -0.28 -0.70 -0.64 -0.78 -0.54 -0.63 | 0 of 18 |
| 32 | GFDLNEYGIS | VIYADGVRTAYADSVK | GGQAGTFDV | 0.93 0.87 -0.48 0.33 -0.06 0.87 | 0 of 18 |
| 33 | GFDLDEYGIS | VIYADGMRTFYADSVK | GNVAGTFDV | -0.84 -0.83 -0.56 -1.06 -0.85 -1.21 | 1 of 18 (1.38) |
| 34 | GFDLNEYGIS | VIYADGMRSFYADSVK | GENAGTFDV | 0.09 -0.08 0.01 -0.39 0.09 0.15 | 1 of 18 (2.52) |
| 35 | GFDLNEYGIS | VIYADGVRTAYADSVK | GQNAGTFDQ | ND -1.44 -0.46 -1.56 -1.52 -1.23 | 0 of 18 |

Data: MIT Lincoln Laboratory AlphaSeq set, Li et al. 2023, doi:10.1038/s41467-023-39022-2, as distributed in FLAb.